{
  "source": "PubChem BioAssay AID504467",
  "about": "(National Center for Advancing Translational Sciences (NCATS), 2011)",
  "note": "Out of some 330,000 compounds screened, about 7,700 (2.3%) were called active. Only results without a clear call are listed here; the source files them as inconclusive. Calls come from the whole dose curve; as a rule, active = well fitted inhibition curve with a large enough effect; inconclusive = small, poorly fitted or top-dose-only effect, or effect the other way; inactive = flat fitted curve, though single readings scatter. Potency is the fitted concentration of half-maximal effect.",
  "data": [
    {"assay": "qHTS screen for small molecules that inhibit ELG1-dependent DNA repair in human embryonic kidney (HEK293T) cells expressing luciferase-tagged ELG1; note: nearly all actives have a fitted effect of over 55% in size", "conditions": "HEK293T ELG1-luciferase reporter, luminescence, 16 h; DNA damage induced by 5-fluorouridine", "values": [
      {"smiles": "Cc1c2non([O-])c-2c(C)[n+](=O)[n+]1[O-]", "Potency": "inconclusive: 20.6 µM"},
      {"smiles": "Oc1ccccc1CNc1ccccn1", "Potency": "inconclusive: 10.3 µM"},
      {"smiles": "Cc1ccc(OP(=O)(Nc2nccs2)Oc2ccc(C)cc2)cc1", "Potency": "inconclusive: 32.6 µM"},
      {"smiles": "O=[N+]([O-])c1cc([N+](=O)[O-])c(CCN2CCOCC2)c([N+](=O)[O-])c1", "Potency": "inconclusive: 11.6 µM"},
      {"smiles": "O=P(Nc1nc2ccc(Cl)cc2s1)(c1ccccc1)c1ccccc1", "Potency": "inconclusive: 20.6 µM"},
      {"smiles": "O=C(Nc1cc([As](=O)(O)O)ccc1O)c1ccccc1", "Potency": "inconclusive: 23.1 µM"},
      {"smiles": "CN(C)C(=O)OCCc1n(C)cc[n+]1C", "Potency": "inconclusive: 13 µM"},
      {"smiles": "CC1CCN(C(=O)Oc2c(Cl)cc(Cl)c3cccnc23)CC1", "Potency": "inconclusive: 1.12 µM"},
      {"smiles": "O=[N+]([O-])c1ccc(O)c(/C=N/Nc2ccc([N+](=O)[O-])cc2[N+](=O)[O-])c1", "Potency": "inconclusive: 4.11 µM"},
      {"smiles": "O=c1c2cc([N+](=O)[O-])ccc2[nH]c2c([N+](=O)[O-])cc([N+](=O)[O-])cc12", "Potency": "inconclusive: 10.3 µM"},
      {"smiles": "CN(C)C(=O)Oc1noc2ccccc12", "Potency": "inconclusive: 16.4 µM"},
      {"smiles": "Cc1ccc(OP(=O)(Nc2ccccn2)Oc2ccc(C)cc2)cc1", "Potency": "inconclusive: 14.6 µM"},
      {"smiles": "O=P1(Nc2nc3ccc(Cl)cc3s2)COc2ccccc2O1", "note": "(centres undefined)", "Potency": "inconclusive: 18.4 µM"},
      {"smiles": "COc1cc(C(=O)NCC2(N3CCOCC3)CCCCC2)cc(Cl)c1OC(C)C", "Potency": "inconclusive: 23.1 µM"},
      {"smiles": "O=C(OC1CN2CCC1CC2)c1ccc(Cl)cc1", "note": "(centres undefined)", "Potency": "inconclusive: 4.61 µM"},
      {"smiles": "O=[N+]([O-])c1ccc2c(c1)nnn2O", "Potency": "inconclusive: 23.1 µM"},
      {"smiles": "O=[As](O)(c1cccs1)c1cccs1", "Potency": "inconclusive: 10.3 µM"},
      {"smiles": "O=P1(Nc2ncccn2)COc2ccccc2OC1", "Potency": "inconclusive: 7.31 µM"},
      {"smiles": "CC1CCC(C(C)C)C(OP(=O)(Nc2ccccn2)c2ccccc2)C1", "note": "(centres undefined)", "Potency": "inconclusive: 23.1 µM"},
      {"smiles": "Cc1ccc(C(=O)OC2CN3CCC2CC3)cc1", "note": "(centres undefined)", "Potency": "inconclusive: 23.1 µM"},
      {"smiles": "CCOC(=O)c1ccc(NC(=O)C(C)(CCl)SC)cc1", "note": "(centres undefined)", "Potency": "inconclusive: 20.6 µM"},
      {"smiles": "O=C(OC1CN2CCC1CC2)c1cccc([N+](=O)[O-])c1", "note": "(centres undefined)", "Potency": "inconclusive: 18.3 µM"},
      {"smiles": "O=C(Nc1ccncc1[N+](=O)[O-])c1ccc([N+](=O)[O-])cc1[N+](=O)[O-]", "Potency": "inconclusive: 16.4 µM"},
      {"smiles": "O=C(COc1ccccc1)OC1CN2CCC1CC2", "note": "(centres undefined)", "Potency": "inconclusive: 1.03 µM"},
      {"smiles": "CC(C)c1ccc(OP(=O)(Nc2ccccn2)Oc2ccccc2F)cc1", "note": "(centres undefined)", "Potency": "inconclusive: 18.3 µM"},
      {"smiles": "ClCCSc1nnc(-c2cccnc2)o1", "Potency": "inconclusive: 29.1 µM"},
      {"smiles": "Cc1ccc2nc3c(c(C)c2c1)CC(C(Cl)Cl)S3", "note": "(centres undefined)", "Potency": "inconclusive: 20.6 µM"},
      {"smiles": "COc1ccc2nc(NP(=O)(c3ccccc3)c3ccccc3)sc2c1", "Potency": "inconclusive: 29.1 µM"},
      {"smiles": "Cc1cc(=O)[nH]c(N[N+](=O)[O-])n1", "Potency": "inconclusive: 0.0052 µM"}
    ]}
  ]
}
